Test results as given in patent US7405314B2 (priority 2004, dated 2008).

What was measured:
[1] = system: panel of 60 tumor cell lines; assay: NIH sulforhodamine B assay, panel of 60 tumor cell lines; type: cell-based, human; settings: 48 hours
[2] = system: human acute myelocytic leukemia (AML) cell lines; assay: 72 hour MTS assays, AML cell lines
[3] = system: HL60 cells; assay: Cell cycle, propidium iodine staining (GMZ27); settings: 24 and 48 hours
[4] = system: HL60 AML cells; assay: Induction of apoptosis by GMZ27
[5] = system: healthy donor peripheral blood mononuclear cells; assay: Long-term colony forming assay, healthy donor cells (GMZ27)
[6] = system: NB4 APL cells; assay: Maturation/differentiation of NB4 APL cells, CD11b (GMZ27); settings: low doses, 48 hour incubation
[7] = system: leukemic cells; assay: 72 hour MTS assay after pretreatment with BSO, DTT or NAC
[8] = system: human leukemia cell lines and leukemic cells obtained from patients with acute or chronic leukemia; assay: Long-term (7 day) colony-forming assay, leukemic cells; settings: semi-solid medium

Compound | anticancer activity against tumor cell line panel [1] | IC50 ([2]; different human AML cell lines) | activity compared with arsenic trioxide ([2]; human AML cell lines) | effect on cell cycle progression [3] | induction of apoptosis compared with ATO [4] | apoptotic pathway ([4]; flow cytometry and Western blotting) | toxicity to normal cells compared with ATO [5] | cell differentiation/maturation (CD11b maturation marker) [6] | sensitivity of leukemic cells after pretreatment with DTT or NAC [7] | sensitivity of leukemic cells after pretreatment with buthionine sulfoximine (BSO) [7] | anti-leukemic activity compared with arsenic trioxide [8]
S-dimethylarsino-2-thiobenzoic acid | evidence of activity at low concentrations | – | – | – | – | – | – | – | – | – | –
CCC[As](CCC)SCC(O)CO (centres unmarked) | – | 560 to 860 nM | higher than the activity of arsenic trioxide | no effect on the cell cycle progression | more potent in induction of apoptosis than ATO | activated the mitochondrial apoptotic pathway | less toxic to normal cells than ATO | partially induce cell differentiation/maturation | less sensitive | more sensitive | significantly higher activity than arsenic trioxide
